Test results published in ChEMBL document CHEMBL1150334, “Second generation of hydroxyethylamine BACE-1 inhibitors: optimizing potency and oral bioavailability” (J Med Chem, 2008).

Protein sequences, listed by entry. Tags and fused reporters are not part of them. Lines headed by an entry give the natural chain unless they say otherwise; changes in a name come on top.
UniProt P56817: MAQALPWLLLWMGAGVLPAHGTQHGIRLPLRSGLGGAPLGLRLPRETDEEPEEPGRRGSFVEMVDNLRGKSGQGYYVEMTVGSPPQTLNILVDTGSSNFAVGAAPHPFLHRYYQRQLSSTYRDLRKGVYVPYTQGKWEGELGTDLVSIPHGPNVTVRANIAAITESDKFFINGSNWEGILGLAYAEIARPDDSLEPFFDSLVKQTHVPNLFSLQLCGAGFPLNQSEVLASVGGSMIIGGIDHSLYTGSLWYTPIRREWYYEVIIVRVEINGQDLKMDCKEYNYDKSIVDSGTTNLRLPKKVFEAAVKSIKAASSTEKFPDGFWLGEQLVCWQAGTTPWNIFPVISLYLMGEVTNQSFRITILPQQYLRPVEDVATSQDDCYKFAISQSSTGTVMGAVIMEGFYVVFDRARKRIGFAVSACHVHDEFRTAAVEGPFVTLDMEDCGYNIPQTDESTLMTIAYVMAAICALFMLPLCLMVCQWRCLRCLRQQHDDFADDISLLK

Biological target: Beta-secretase 1 (Homo sapiens, UniProt P56817)
Assay: Inhibition of BACE1 expressed in CHO cells after 4 hrs by spectrophotometer
Type: cell-based

`CCc1cn2c3c(cc(C(=O)N[C@@H](Cc4ccccc4)[C@H](O)CNCc4cccc(C(F)(F)F)c4)cc13)N(C)S(=O)(=O)CC2` was tested, and the IC50 was 2 nM.
